# In PubChem BioAssay AID2235 (The Scripps Research Institute Molecular Screening Center, 2010):
# Amino acid sequences for entries named in this document (tags omitted).
# UniProt P62136, whole entry: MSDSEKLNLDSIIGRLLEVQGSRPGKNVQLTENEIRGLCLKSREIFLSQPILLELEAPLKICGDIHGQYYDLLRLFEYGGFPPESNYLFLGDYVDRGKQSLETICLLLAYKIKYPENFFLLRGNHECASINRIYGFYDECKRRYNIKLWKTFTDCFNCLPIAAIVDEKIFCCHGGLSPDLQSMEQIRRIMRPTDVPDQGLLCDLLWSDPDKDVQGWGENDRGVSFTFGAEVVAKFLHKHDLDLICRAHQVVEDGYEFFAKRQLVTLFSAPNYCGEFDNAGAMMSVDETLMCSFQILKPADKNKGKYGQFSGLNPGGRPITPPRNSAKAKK
# Only a part is listed here, and it is no random draw. Some results for these compounds are left out of this collection, so the calls shown say nothing about other tests. Active and inactive are the calls of the source.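 The calls were made as follows: active = inhibition above the mean inhibition of all tested compounds plus 3 SD, computed separately for each screening campaign (cut at about 15% in these data); inactive = the rest.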
# Target: Serine/threonine-protein phosphatase PP1-alpha catalytic subunit (Homo sapiens) (UniProt P62136)
# Assay: inhibition of human PP1 catalytic subunit – biochemical, fluorescence, OMFP substrate, single point, counter-screen for PP5 inhibitor project, primary screen (AID 2235)
# Conditions: purified PP1alpha, at 6.7 µM, active compounds read high
row,SMILES,inhibition
1,CN1[C@@H]2CC[C@H]1CC(OC(=O)C(O)(c1ccccc1)c1ccccc1)C2 (some centres undefined),inactive: 1.94%
2,O=C(NCC1(N2CCCCC2)CCCCC1)c1cc([N+](=O)[O-])ccc1Cl,inactive: 0.43%
3,Cc1ccc(C(=O)NCC2(N3CCCCC3)CCCCC2)cc1,inactive: 1.41%
4,CCN(CC)CC(C)C(C)OC(=O)C(O)(c1ccccc1)c1ccccc1 (centres undefined),inactive: -3.4%
5,COc1cc(SC)ccc1C(=O)NCC1(N(C)C)CCCCC1,inactive: -2.03%
6,CC(C)N1C(=O)CC2(CCN(CCOC(=O)C(O)(c3ccccc3)c3ccccc3)CC2)C1=O,inactive: -1.71%
7,Cc1ccccc1C(=O)NCC1(N2CCCCC2)CCCCC1,inactive: -0.52%
8,CN(C)c1ccc(C(=O)NCC2(N(C)C)CCCCC2)cc1,inactive: -1.19%
9,CN(C)C1CCCC1OC(=O)C(O)(c1ccccc1)c1ccccc1 (centres undefined),inactive: -4.71%
10,COc1ccc(C(=O)NCC2(N(C)C)CCCCC2)cc1,inactive: -2.19%
11,CCN1CCCC(OC(=O)C2(O)c3ccccc3C=Cc3ccccc32)C1 (centres undefined),inactive: -0.29%
12,Cc1cc(C(=O)NCC2(N3CCCCC3)CCCCC2)ccc1[N+](=O)[O-],inactive: 2.55%
13,O=C(NCC1(N2CCCCC2)CCCCC1)c1cccc(Br)c1,inactive: -4.02%
14,C=CCN1CCN(CCOC(=O)C(O)(c2ccccc2)c2ccccc2)CC1,inactive: 4.75%
15,O=C(NCC1(N2CCCCC2)CCCCC1)c1cc(F)c(F)cc1Cl,inactive: 2.98%
16,COc1cc(C(=O)NCC2(N(C)C)CCCCC2)c([N+](=O)[O-])cc1OC,inactive: -5.27%
17,CN(C)C1(CNC(=O)c2ccc(Br)cc2)CCCCC1,inactive: -1.9%
18,O=C(NCC1(N2CCCCC2)CCCCC1)c1cccc(Cl)c1,inactive: -1.23%
19,COc1cccc(C(=O)NCC2(N3CCCCC3)CCCCC2)c1,inactive: -0.69%
20,COc1ccc(Cl)cc1C(=O)NCC1(N(C)C)CCCCC1,inactive: -3.6%
21,O=C(OC1CN2CCC1CC2)C(CO)(c1ccccc1)c1ccccc1 (centres undefined),inactive: -4.93%
22,CC(C)Oc1ccc(C(=O)NCC2(N(C)C)CCCCC2)cc1,inactive: -2.16%
23,CN(C)c1cccc(C(=O)NCC2(N(C)C)CCCCC2)c1,inactive: -0.03%
24,COc1ccc(Br)c(C(=O)NCC2(N3CCCCC3)CCCCC2)c1,inactive: 1.23%
